Assay results from publication PMC11098091 (Nature chemical biology, 2022).

Sequences of proteins named here, by UniProt entry; tags and fusion partners are left off.
UniProt P35372, whole entry Y328F: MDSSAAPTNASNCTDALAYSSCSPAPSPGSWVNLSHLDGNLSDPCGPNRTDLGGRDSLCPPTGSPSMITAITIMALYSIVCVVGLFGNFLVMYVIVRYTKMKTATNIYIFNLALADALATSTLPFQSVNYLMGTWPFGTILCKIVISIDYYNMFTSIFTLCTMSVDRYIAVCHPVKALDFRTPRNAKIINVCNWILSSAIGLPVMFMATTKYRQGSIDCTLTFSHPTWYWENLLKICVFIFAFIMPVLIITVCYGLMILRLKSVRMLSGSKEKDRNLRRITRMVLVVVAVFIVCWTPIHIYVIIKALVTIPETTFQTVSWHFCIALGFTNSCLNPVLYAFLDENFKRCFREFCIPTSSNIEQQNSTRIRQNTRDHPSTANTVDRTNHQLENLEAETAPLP
UniProt P35372, whole entry: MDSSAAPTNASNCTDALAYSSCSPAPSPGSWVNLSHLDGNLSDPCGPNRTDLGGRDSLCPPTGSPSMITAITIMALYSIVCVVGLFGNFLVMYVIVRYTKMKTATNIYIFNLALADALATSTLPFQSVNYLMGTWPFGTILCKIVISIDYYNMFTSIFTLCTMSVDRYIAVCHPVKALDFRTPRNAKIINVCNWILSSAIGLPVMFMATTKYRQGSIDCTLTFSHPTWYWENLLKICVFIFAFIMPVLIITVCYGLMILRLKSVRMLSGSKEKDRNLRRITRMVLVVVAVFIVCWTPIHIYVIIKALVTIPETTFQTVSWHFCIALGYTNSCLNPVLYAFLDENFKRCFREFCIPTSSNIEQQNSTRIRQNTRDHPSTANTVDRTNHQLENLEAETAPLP
UniProt P35372, whole entry Q126A: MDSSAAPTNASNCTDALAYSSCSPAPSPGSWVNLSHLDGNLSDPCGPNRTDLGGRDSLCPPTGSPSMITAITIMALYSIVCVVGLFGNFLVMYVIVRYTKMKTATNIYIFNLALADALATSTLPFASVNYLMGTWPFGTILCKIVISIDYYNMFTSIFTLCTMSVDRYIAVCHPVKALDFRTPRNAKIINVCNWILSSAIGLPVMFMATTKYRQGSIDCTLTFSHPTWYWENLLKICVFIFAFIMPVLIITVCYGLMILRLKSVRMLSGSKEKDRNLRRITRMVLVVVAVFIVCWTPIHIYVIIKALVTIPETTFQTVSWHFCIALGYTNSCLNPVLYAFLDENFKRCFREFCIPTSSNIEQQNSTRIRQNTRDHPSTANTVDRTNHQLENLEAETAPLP

How the values were obtained:
Format in all cases: cell-based
[1] = biological target: μOR Y326^7.43F mutant (Homo sapiens, UniProt P35372, Y328F)
[2] = biological target: human μOR (Homo sapiens, UniProt P35372)
[3] = biological target: μOR Q124^2.60A mutant (Homo sapiens, UniProt P35372, Q126A)

Substance: (D-Ala^2, N-MePhe^4, Gly-ol)-enkephalin [DAMGO]
- reduction of maximal Gi1 activation by the Y326F mutation [1]: 36%
- potency spread across G protein subtypes [2]: ~ 2 fold
- reduction of potency by the Q124A mutation [3]: 100 fold
